{"source": "paper PMC4909201", "about": "(PLoS ONE, 2016)", "key": {"[1]": {"molecular_target": "thrombin binding to immobilized γA/γA-fibrin (Homo sapiens, UniProt P00734)", "assay": "SPR: effect of active site inhibitors on thrombin binding to immobilized γA/γA-fibrin"}, "[2]": {"molecular_target": "thrombin", "conditions": "thrombin inhibition; cited from earlier work"}, "[3]": {"molecular_target": "T1, thrombin binding to GpIbα269-286ppp (Homo sapiens, UniProt P00734)", "T1 construct": "purchased Enzyme Research Laboratories (South Bend, IN)", "assay": "SPR: effect of active site inhibitors on thrombin binding to immobilized GpIbα269-286ppp", "description": "Between runs, flow cells were regenerated with 1 M NaCl for 30 s. […] EC50 values were determined as above. […] Binding affinities were calculated as described above."}, "[4]": {"molecular_target": "T2, 125I-thrombin binding to γA/γ′-fibrin clots (Homo sapiens, UniProt P00734)", "T2 construct": "purchased Enzyme Research Laboratories (South Bend, IN)", "assay": "125I-thrombin binding to γA/γ′-fibrin clots"}, "[5]": {"molecular_target": "thrombin binding to immobilized factor Va (Homo sapiens, UniProt P00734)", "assay": "SPR: effect of active site inhibitors on thrombin binding to immobilized factor Va"}, "[6]": {"molecular_target": "T3, 125I-thrombin binding to γA/γA-fibrin clots (Homo sapiens, UniProt P00734)", "T3 construct": "purchased Enzyme Research Laboratories (South Bend, IN)", "assay": "125I-thrombin binding to γA/γA-fibrin clots"}, "[7]": {"molecular_target": "thrombin binding to immobilized γA/γ′-fibrin (Homo sapiens, UniProt P00734)", "assay": "SPR: effect of active site inhibitors on thrombin binding to immobilized γA/γ′-fibrin"}}, "data": [{"smiles": "CC1CNc2c(cccc2S(=O)(=O)N[C@@H](CCCNC(=N)N)C(=O)N2CC[C@@H](C)C[C@@H]2C(=O)O)C1", "note": "(stereo partly shown) [Argatroban, argatroban]", "values": [{"measurement": "EC50", "setting": "[1]", "result": "62.4 ± 4.8", "unit": "nM"}, {"measurement": "Ki", "setting": "[2]", "result": 19, "unit": "nM"}, {"measurement": "EC50", "setting": "[3]", "result": "161 ± 2.6", "unit": "nM"}, {"measurement": "Ki", "setting": "[4]", "result": "7 ± 5.6", "unit": "nM"}, {"measurement": "EC50", "setting": "[5]", "result": "23.4 ± 8.8", "unit": "nM"}, {"measurement": "Ki", "setting": "[6]", "result": "2.4 ± 1.9", "unit": "nM"}, {"measurement": "EC50", "setting": "[7]", "result": "59.4 ± 5.1", "unit": "nM"}]}]}
